The nature of the experiment: Ratio of IC50 for VEGFR-1 to IC50 for VEGFR-2.

Turning to `c1cnc(NCc2ccc3ncccc3c2)c(-c2nnc(Nc3ccc4c(c3)OCCO4)o2)c1`, the Ratio IC50 amounted to 10.
In the case of `c1ccc(-c2nnc(Nc3ccc4c(c3)OCCO4)o2)c(NCc2ccncc2)c1` it was 10; in that of `c1cnc(NCc2ccncc2)c(-c2nnc(Nc3ccc4c(c3)OCCO4)o2)c1`, 10.

The values are drawn from ChEMBL document CHEMBL1687699, “Discovery of Dual VEGFR-2 and Tubulin Inhibitors with in Vivo Efficacy” (ACS Med Chem Lett, 2010).
